# Key:
# [1] = Introduction of molecules into crosslinked body of porous microstructural body (UV-visible, supernatant); assay type: physicochemical; details: adsorption from aqueous dispersion; Example 10
# Protocol: A low-molecular weight compound was added, and caused to adsorb, to the aqueous dispersion of the porous γ-PPG4k-Plate crosslinked body, and then the porous γ-PPG4k-Plate crosslinked body was sedimented by centrifugation. The concentration of the low-molecular weight compound present in the supernatant liquid obtained at that time was determined by a UV-visible spectral method. Thus, the amount of the low-molecular weight compound adsorbing to the porous γ-PPG4k-Plate crosslinked body was determined. The ratio of the weight of the low-molecular weight compound to the total sum of the weights of the low-molecular weight compound and the porous γ-PPG4k-Plate crosslinked body was as follows: 0.7 wt % in the case of catechin; 0.6 wt % in the case of coumarin; and 0.9 wt % in the case of linoleic acid.
# [2] = Introduction of molecules into porous nanosheet crosslinked body (UV-visible, supernatant); assay type: physicochemical; details: adsorption from aqueous dispersion; Example 9
substance,measurement,setting,value
catechin,ratio of the weight of the low-molecular weight compound to the total sum of the weights of the compound and the porous γ-PPG4k-Plate crosslinked body,[1],0.7 wt %
same,ratio of the weight of the low-molecular weight compound to the total sum of the weights of the compound and the porous γ-plu108-NS crosslinked body,[2],0.6 wt %
